Assay results taken from publication PMC11432123, “Biophysical Studies of Amyloid-Binding Fluorophores to Tau AD Core Fibrils Formed without Cofactors” (International Journal of Molecular Sciences, 2024).

Molecular target: the molecule itself
Assay: negative-stain transmission electron microscopy; 100 µM TADC, quiescent, 37 °C, 15 h and 30 h, no cofactor; 20 mM sodium phosphate pH 8, 1 mM DTT, 1.1 mM CaCl2; fibril formation (self-assembly)

B1: Tau AD core fragment (TADC, tau 306–378) (domain or fragment, UniProt P10636-8 306-378, looked up)
chain: VQIVYKPVDLSKVTSKCGSLGNIHHKPGGGQVEVKSEKLDFKDRVQSKIGSLDNITHVPGGGNKKIETHKLTF
notes: plasmid by gene synthesis (Genscript); source: E. coli, purified (heating at 80 °C, cation exchange, SEC of monomers after 7.5 M urea with 50 mM DTT)
binding result: binds
